According to patent publication US11408891B2, “Imaging agent” (University of Lancaster, priority 2017, dated 2022):

System: HaCaT cells
Conditions: HaCaT cells incubated for 48 hours at the indicated concentrations (FIG. 3)
Method: HaCaT cells were grown on glass coverslips under the same conditions as in described in Steel 2015 referred to herein. […] The coverslips were then washed in PBS and mounted by inversion on a glass slide. Images were captured on a Zeiss LSM 850 Meta laser scanning confocal microscope.

PtMe3bpy-S-glutathione [compound A]
toxicity: low toxicity
